Literature values as cited in patent publication US8946382B2, “Apelin peptides and methods of use” (The United States of America, as represented by the …, priority 2009, dated 2015).
Like-named read-outs stand apart in the source and are kept apart here.

What was measured:
[1] = biological target: T1, apelin G protein receptor (known as APJ) (Homo sapiens, UniProt P35414); details: Tatemoto et al. 1998; cited from earlier work
T1 sequence (P35414 1-380): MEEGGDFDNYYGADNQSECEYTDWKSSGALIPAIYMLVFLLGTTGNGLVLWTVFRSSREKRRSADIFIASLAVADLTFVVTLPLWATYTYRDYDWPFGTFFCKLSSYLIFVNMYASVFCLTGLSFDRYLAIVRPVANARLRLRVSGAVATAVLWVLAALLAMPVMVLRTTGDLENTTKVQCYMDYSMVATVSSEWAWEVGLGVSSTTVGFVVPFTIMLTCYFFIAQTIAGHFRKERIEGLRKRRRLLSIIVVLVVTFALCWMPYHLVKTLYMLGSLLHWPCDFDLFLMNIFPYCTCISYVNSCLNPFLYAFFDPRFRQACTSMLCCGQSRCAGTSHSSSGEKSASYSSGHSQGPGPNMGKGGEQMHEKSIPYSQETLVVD

APJ receptor = biological target: T2, APJ receptor (Homo sapiens, UniProt P35414); details: cited from earlier work
T2 sequence (P35414 1-380): T1 sequence (P35414 1-380)

What does the source list for “apelin-36: 36 amino acid peptide, residues 42-77 of the apelin preproprotein (LVQPRGSRNGPGPWQGGRRKFRRQRPRLSHKGPMPF; homo sapiens)”?
potency of peptide-induced acidification rates [1]: least potent; binding to the APJ receptor (APJ receptor): bind the APJ apelin receptor; binding to the APJ receptor (APJ receptor; listed as Apelin-36 (42-77)): can bind the APJ receptor
